Columns and labels:
[1] = tested on: MOLM-13 cells; test: MOLM-13 48 Hour Cell Proliferation Assay; details: read-out: MOLM-13 48 Hour cell proliferation IC50
Description: MOLM-13 (DSMZ) cells were seeded at 1000 cells per well in a volume of 44 μL in a Falcon 384-well tissue culture treated clear bottom microplate in RPMI 1640 media containing 10% fetal bovine serum using a Multidrop Combi (ThermoFisher Scientific). Cells were incubated overnight at 37° C. in a humidified tissue culture incubator. The Mosquito® HTS Liquid Handler was used to make a compound/media intermediate plate by aliquoting 1 μL of compound from the initial compound dilution plate (concentrations ranging from 10.0 mM to 38.0 nM in 100% DMSO) into a V bottom 384-well screen matrix plate containing 49 μL of media containing the appropriate serum (50-fold dilution, 2% DMSO). […] The plate was read on an EnVision plate reader (Perkin Elmer) using the Ultra Sensitive Luminescence protocol. Data analysis was performed by normalizing the raw luminescence units to an average of the positive control values for staurosporine (100% cell death) and the negative control values for DMSO (0% cell death). An IC50 was calculated using a 4-parameter logistic nonlinear regression model in GraphPad Prism.

The chains behind the UniProt entries cited, without tags or fusion partners.
UniProt O14744, whole entry: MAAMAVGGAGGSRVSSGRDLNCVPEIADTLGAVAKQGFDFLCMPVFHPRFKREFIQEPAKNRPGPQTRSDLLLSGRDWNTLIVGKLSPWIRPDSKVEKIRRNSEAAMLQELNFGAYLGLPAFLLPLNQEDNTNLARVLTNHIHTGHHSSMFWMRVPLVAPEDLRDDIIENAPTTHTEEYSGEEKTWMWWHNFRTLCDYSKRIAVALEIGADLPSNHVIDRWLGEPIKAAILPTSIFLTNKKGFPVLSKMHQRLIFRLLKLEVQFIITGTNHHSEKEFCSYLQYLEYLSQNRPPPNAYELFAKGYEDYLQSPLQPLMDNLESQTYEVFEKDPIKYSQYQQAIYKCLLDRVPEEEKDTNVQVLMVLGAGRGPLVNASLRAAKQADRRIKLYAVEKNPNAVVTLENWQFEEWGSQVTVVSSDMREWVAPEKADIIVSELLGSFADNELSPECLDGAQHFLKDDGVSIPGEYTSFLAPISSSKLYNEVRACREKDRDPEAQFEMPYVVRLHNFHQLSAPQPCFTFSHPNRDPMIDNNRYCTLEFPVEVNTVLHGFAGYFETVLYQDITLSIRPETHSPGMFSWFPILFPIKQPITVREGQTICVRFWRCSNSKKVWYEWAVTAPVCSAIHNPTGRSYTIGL
UniProt Q86U44, whole entry: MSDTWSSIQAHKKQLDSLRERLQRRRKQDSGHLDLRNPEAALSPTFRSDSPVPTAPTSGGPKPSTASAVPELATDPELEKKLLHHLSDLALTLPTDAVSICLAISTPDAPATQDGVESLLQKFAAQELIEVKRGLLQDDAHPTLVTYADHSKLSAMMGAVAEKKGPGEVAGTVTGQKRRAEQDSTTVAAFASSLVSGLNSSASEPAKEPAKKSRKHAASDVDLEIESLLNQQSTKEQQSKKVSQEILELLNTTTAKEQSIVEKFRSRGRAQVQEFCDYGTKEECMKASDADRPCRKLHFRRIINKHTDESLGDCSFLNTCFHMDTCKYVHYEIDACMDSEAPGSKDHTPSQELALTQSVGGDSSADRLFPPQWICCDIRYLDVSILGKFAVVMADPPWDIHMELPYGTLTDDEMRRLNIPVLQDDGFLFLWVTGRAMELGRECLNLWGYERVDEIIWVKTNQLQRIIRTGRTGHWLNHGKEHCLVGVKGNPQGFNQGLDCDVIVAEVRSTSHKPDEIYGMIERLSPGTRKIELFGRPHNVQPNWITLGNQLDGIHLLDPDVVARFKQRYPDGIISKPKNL
UniProt Q9UBP6, whole entry: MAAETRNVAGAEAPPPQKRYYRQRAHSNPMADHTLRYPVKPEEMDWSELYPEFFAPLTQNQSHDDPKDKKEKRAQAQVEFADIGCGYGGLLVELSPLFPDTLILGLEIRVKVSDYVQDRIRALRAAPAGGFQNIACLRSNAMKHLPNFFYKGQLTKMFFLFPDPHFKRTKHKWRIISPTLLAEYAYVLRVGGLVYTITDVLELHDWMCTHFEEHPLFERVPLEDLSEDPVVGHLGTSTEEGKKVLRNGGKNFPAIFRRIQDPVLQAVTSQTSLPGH
UniProt Q9BQA1, whole entry partner: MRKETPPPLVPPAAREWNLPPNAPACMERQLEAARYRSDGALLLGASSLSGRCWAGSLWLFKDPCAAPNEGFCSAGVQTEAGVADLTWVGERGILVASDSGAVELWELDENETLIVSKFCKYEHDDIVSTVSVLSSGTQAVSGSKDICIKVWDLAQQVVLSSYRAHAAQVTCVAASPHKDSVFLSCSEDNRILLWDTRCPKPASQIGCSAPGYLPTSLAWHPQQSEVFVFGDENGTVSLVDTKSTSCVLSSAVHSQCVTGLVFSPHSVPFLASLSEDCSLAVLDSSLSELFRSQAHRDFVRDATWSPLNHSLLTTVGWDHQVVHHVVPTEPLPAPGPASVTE
UniProt P57081, whole entry partner: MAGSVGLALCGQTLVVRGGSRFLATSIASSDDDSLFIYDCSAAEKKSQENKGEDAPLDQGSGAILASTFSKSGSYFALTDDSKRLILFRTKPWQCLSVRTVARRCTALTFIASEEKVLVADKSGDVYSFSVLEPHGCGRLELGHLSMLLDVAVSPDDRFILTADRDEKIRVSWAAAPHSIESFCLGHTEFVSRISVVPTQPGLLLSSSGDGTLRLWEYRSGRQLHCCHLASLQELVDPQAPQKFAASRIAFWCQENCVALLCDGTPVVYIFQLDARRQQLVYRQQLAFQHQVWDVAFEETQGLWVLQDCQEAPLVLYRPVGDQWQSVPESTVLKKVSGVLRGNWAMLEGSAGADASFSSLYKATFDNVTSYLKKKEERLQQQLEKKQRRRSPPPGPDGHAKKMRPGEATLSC
UniProt Q9HCE5, whole entry partner: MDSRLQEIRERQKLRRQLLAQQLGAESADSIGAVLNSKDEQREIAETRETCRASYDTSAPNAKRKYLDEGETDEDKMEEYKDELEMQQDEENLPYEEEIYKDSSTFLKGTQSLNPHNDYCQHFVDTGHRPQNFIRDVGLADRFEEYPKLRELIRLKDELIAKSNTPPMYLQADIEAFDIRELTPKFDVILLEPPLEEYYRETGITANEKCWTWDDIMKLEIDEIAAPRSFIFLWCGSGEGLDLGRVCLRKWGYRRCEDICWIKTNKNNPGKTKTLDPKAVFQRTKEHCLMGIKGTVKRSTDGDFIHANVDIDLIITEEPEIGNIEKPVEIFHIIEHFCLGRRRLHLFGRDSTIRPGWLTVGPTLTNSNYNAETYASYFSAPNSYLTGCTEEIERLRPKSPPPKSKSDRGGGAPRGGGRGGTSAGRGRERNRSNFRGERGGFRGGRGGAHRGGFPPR

[2] = tested on: m6A in cellular mRNA of MOLM-13 cells; test: m6A-mRNA LC-MS/MS Assay (m6A cellular assay); format: cell-based; details: read-out: m^6A IC50
[3] = target: PRMT5-MEP50 (Homo sapiens, UniProt O14744); test: PRMT5 Assay (PRMT5 biochemical assay); details: read-out: PRMT5 IC50
Description: Assays were performed in a 25 μl-volume in 384-well V-bottom polypropylene microplates (Greiner Bio-One, cat. No. 781280) at ambient temperature. Optimized 1× assay buffer was 20 mM Tris-HCl pH 8.0, 1 mM DTT, […]. For compound screening PRMT5-MEP50 (final concentration, f.c.=2.5 nM) was added using a Multidrop Combi (ThermoFisher Scientific, Waltham, Mass.) and preincubated for 5 min. Reactions were started by adding 3′ biotinylated histone H4 peptide acetylated on serine 1 (Ac-[…]-Biotin) (f.c.=100 nM) and 3H-SAM (f.c.=250 nM) substrates. Reactions proceeded for 60 minutes and were quenched with excess non-radioactive SAM (f.c.=15 μM). The reactions were then transferred to streptavidin-coated flashplates and incubated for 2 hours at 25° C. Following two washing cycles with 0.1% Tween-20, the plates were sealed and read on a TopCount (PerkinElmer, Waltham, Mass.) plate-based scintillation counter. For determination of kinetic parameters, reaction times were optimized so that measurements were taken during the initial velocity phase of the reaction.

[4] = tested on: MOLM-13 cells; test: MOLM-13 96 Hour Cell Proliferation Assay; details: read-out: MOLM-13 96 Hour cell proliferation IC50
Description: MOLM-13 (DSMZ) cells were seeded at 600 cells per well in a volume of 44 μL in a Greiner Bio-One CELLSTAR™ 384 Well Polystyrene Cell Culture clear bottom microplate in RPMI 1640 media containing 10% fetal bovine serum using a Multidrop Combi (ThermoFisher Scientific). Cells were incubated overnight at 37° C. in a humidified tissue culture incubator. To prevent evaporation or to reduce edge effect, add 50 μL or more H2O to an empty plate, cover, and place on top of the cell plates. […] The plate was protected from light using TopSeal-A (Black) film over the entire plate, added White Bottom seal film on the bottom of the entire plate for a better reading on the Envision, and placed on an IKA plate shaker for at 300 rpm for 10 minutes at room temperature. The plate was read on an EnVision plate reader (Perkin Elmer) using the Ultra Sensitive Luminescence protocol. Data analysis was performed by normalizing the raw luminescence units to an average of the positive control values for staurosporine (100% cell death) and the negative control values for DMSO (0% cell death). An IC50 was calculated using a 4-parameter logistic nonlinear regression model in GraphPad Prism.

[5] = target: METTL3/METTL14 (Homo sapiens, UniProt Q86U44); test: METTL3-14 Standard Enzyme Assay (METTL3 biochemical assay); details: read-out: METTL3 IC50
Description: (§1) Assays were performed in a 25 μl-volume in 384-well V-bottom polypropylene microplates (Greiner Bio-One, cat. No. 781280) at ambient temperature. Optimized 1× assay buffer was 20 mM HEPES pH 7.5, 50 mM KCl, 250 μM MgCl2, 1 mM DTT, 0.01% Tween, 0.01% BSG, 0.004 U/μl RNAseOUT (cat. No. 10777019, ThermoFisher Scientific, Waltham, Mass.). For compound screening METTL3/METTL14 (final concentration, f.c.=2.5 nM) was added using a Multidrop Combi (ThermoFisher Scientific, Waltham, Mass.) and preincubated for 5 min. Reactions were started by adding 3′ biotinylated RNA (UCUGGACUAAA-biotin) (f.c.=100 nM) and 3H-SAM (f.c.=100 nM) substrates. Reactions proceeded for 30 minutes and were quenched with excess non-radioactive SAM (f.c.=15 μM). The reactions were then transferred to streptavidin-coated flashplates and incubated for 2 hours at 25° C. Following two washing cycles with 0.1% Tween-20, the plates were sealed and read on a TopCount (PerkinElmer, Waltham, Mass.) plate-based scintillation counter. For determination of kinetic parameters, reaction times were optimized so that measurements were taken during the initial velocity phase of the reaction.

[6] = target: METTL1/WDR4 (Homo sapiens, UniProt Q9UBP6); test: METTL1 Assay (METTL1 biochemical assay); details: read-out: METTL1 IC50
Description: as §1, with “METTL1/WDR4” for “METTL3/METTL14”, “f.c.=6.25” for “f.c.=2.5”, “([…]-biotin) (f.c.=25” for “(UCUGGACUAAA-biotin) (f.c.=100”, “(f.c.=60” for “(f.c.=100”, “20” for “30”

SMILES	IC50 [1] [nM]	IC50 [2] [nM]	IC50 [3] [nM]	IC50 [4] [nM]	IC50 [5] [nM]	IC50 [6] [nM]
CNc1ccc2ccc(CC[C@H]3C[C@@H](n4cc(C)c5c(N)ncnc54)[C@H](O)[C@@H]3O)cc2n1	1000 to 10000	1000 to 10000	< 10	< 1000	< 10	> 1000
Nc1ncnc2c1ccn2[C@@H]1C[C@H](CCc2ccccc2)[C@@H](O)[C@H]1O			> 1000			> 1000
CNc1ccc2ccc(OC[C@H]3O[C@@H](n4cc(C5CCCCC5)c5c(N)ncnc54)[C@H](O)[C@@H]3O)cc2n1		1000 to 10000	< 10		< 10	> 1000

From patent publication US20230027361A1, “METTL3 MODULATORS” (priority 2019, published 2023)
